Measured values from paper PMC9176637.

Protein sequences, listed by entry. Tags and fused reporters are not part of them. Residues count along the entry.
UniProt P09211, 2-210 limits assumed: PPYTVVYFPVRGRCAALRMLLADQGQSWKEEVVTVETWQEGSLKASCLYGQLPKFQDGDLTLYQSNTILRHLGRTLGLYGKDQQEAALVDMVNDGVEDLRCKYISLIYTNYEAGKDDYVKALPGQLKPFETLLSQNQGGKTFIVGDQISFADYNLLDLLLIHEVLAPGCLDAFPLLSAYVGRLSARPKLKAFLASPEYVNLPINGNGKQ

Experiments:
GST P1-1 = GST P1-1 (Homo sapiens, UniProt P09211); assay: GST P1-1 inhibition, sequential injection analysis (SIA) method, GSH/CDNB, absorbance 340 nm; conditions: read-out: IC50 (µM ± SD), GST P1-1 inhibition, 37 °C, pH 6.5, 1.8 mM CDNB, 4 min stop, triplicate
[1] = tested on: ovarian cancer cell lines (A2780, A2780cisR); conditions: cited from earlier work

## C=C(CC)C(=O)c1ccc(OCC(=O)Oc2ccc(P(c3ccccc3)c3ccccc3)cc2)c(Cl)c1Cl
GST P1-1
  IC50: 181 µM

## C=C(CC)C(=O)c1ccc(OCC(=O)Oc2ccccc2P(c2ccccc2)c2ccccc2)c(Cl)c1Cl
GST P1-1
  IC50: 152 µM

## C=C(CC)C(=O)c1ccc(OCC(=O)OCCOC(=O)c2ccc(P(c3ccccc3)c3ccccc3)cc2)c(Cl)c1Cl
[1]
  GST inhibitory activity in ovarian cancer cell lines: modest GST inhibitory activity
GST P1-1
  IC50: 138 µM
